Drawing on patent EP1025114B1, “3'-N-MODIFIED 6-O-SUBSTITUTED ERYTHROMYCIN KETOLIDE DERIVATIVES HAVING ANTIBACTERIAL ACTIVITY” (priority 1997, dated 1999), this text covers MIC for 1 compound.

The test has as its system Streptococcus Pheumoniae 5979. Kind of test: In vitro antibacterial activity, agar dilution MIC. To be noted: Streptococcus Pheumoniae 5979 (organism code ZZ); BHI agar, 35-37 °C, 20 to 24 hours; unit assumed. Format: cell-based. The method, then: Representative compounds of the present invention were assayed in vitro for antibacterial activity as follows: Twelve petri dishes containing successive aqueous dilutions of the test compound mixed with 10 mL of sterilized Brain Heart infusion (BHI) agar (Difco 0418-01-5) were prepared. Each plate was inoculated with 1:100 (or 1:10 for slow-growing strains, such as Micrococcus and Streptococcus) dilutions of up to 32 different microorganisms, using a Steers replicator block. The inoculated plates were incubated at 35-37 °C for 20 to 24 hours. In addition, a control plate, using BHI agar containing no test compound, was prepared and incubated at the beginning and end of each test.
An additional plate containing a compound having known susceptibility patterns for the organisms being tested and belonging to the same antibiotic class as the test compound was also prepared and incubated as a further control, as well as to provide test-to-test comparability. Erythromycin A was used for this purpose.
After incubation, each plate was visually inspected. The minimum inhibitory concentration (MIC) was defined as the lowest concentration of drug yielding no growth, a slight haze, or sparsely isolated colonies on the inoculum spot as compared to the growth control.
(In general: In agar dilution, organisms are placed on agar that contains the substance at set levels.)

As a reminder, the MIC is the lowest concentration that inhibits growth of the organism. Higher therefore signals a need for much substance.

For the compound `CC[C@H]1OC(=O)[C@H](C)[C@@H](O[C@H]2C[C@@](C)(OC)[C@@H](O)[C@H](C)O2)[C@H](C)[C@@H](O[C@@H]2O[C@H](C)C[C@H](N(C)C)[C@H]2O)[C@](C)(O)C[C@@H](C)C(=O)[C@H](C)[C@@H](O)[C@]1(C)O` [Ery. A, Erythromycin A, reference compound], the MIC was > 128 µg/mL.
